Where “and” joins values, the source holds several entries; their conditions need not be identical. Equal entries are not always repeated. Only a part is listed here, and it is no random draw. Inconclusive results are not listed. Calls of active or inactive are those of the source. How the source made its calls, unless noted: active means hit-call score of the fitted dose curve at least 0.9, where 1 is the maximum; inconclusive means response in the unintended direction; inactive means score below 0.9.
Legend:
[1] = test system: Sodium/Iodide Symporter (NIS), SLC5A5 (gene 6528); assay: CPHEA_Stoker_NIS_Inhibition_RAIU: CPHEA's Radioactive Iodide Uptake (RAIU) Assay for Sodium/Iodide Symporter (NIS) Inhibition, Stoker and Laws Labs (AID 2283841)
Outline: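 Iodide uptake through human NIS is measured in an engineered HEK293T line. Cells take up 125I (329pM final) for 2 hours at room temperature alongside chemicals at 0.001–100uM. Retained radioactivity is counted, and the signal is expressed against DMSO controls.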

The chains behind the UniProt entries cited, without tags or fusion partners. Where a name states a change or a piece, a line headed by the entry shows the natural chain unless it says otherwise.
UniProt P37238, whole entry, looked up: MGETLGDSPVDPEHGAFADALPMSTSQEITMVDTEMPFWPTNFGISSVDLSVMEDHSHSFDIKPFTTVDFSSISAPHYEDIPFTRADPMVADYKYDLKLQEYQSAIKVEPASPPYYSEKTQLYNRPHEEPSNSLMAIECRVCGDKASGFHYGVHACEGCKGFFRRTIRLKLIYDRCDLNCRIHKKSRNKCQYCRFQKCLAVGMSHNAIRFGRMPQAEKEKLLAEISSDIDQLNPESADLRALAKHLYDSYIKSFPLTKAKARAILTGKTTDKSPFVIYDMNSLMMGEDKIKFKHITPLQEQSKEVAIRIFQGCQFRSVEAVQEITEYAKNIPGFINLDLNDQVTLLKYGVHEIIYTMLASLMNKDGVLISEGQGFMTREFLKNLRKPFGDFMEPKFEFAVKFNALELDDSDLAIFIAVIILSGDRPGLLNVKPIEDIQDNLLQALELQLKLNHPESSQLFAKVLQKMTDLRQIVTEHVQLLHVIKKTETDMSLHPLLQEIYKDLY
UniProt Q98867: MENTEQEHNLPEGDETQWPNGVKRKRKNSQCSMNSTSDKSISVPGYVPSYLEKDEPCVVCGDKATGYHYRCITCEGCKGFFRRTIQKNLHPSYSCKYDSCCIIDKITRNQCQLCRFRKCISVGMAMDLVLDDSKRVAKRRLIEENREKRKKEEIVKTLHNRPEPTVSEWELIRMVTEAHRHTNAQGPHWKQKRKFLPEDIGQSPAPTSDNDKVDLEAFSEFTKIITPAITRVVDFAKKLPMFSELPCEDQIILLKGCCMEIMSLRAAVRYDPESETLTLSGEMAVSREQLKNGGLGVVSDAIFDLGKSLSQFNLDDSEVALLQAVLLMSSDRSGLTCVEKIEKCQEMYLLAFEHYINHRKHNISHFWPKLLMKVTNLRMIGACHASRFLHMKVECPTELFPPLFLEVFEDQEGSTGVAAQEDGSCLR
UniProt P10827: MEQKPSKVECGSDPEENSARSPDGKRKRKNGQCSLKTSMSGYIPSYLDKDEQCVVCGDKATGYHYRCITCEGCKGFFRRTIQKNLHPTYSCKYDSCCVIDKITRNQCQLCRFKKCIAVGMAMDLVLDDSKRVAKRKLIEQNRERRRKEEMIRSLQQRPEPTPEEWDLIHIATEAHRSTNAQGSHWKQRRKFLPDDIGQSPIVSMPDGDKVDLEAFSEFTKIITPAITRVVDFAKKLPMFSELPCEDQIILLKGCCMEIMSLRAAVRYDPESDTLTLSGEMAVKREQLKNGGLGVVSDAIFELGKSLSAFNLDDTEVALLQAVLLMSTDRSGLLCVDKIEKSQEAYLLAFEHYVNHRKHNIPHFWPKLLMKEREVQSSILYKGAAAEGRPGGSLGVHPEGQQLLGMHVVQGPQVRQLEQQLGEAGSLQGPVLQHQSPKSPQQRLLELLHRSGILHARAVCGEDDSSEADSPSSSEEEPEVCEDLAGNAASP
UniProt P15204: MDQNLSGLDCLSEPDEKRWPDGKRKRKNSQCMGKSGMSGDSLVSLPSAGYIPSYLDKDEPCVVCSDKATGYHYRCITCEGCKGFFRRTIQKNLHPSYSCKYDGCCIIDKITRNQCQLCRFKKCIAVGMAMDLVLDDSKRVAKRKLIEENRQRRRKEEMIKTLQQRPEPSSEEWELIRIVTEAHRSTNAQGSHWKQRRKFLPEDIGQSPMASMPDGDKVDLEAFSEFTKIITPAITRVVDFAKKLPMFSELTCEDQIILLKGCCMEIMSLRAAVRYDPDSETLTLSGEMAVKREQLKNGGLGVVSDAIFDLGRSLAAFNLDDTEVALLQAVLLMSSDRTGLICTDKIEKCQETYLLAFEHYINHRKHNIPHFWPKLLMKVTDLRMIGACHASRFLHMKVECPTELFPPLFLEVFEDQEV
UniProt P10828: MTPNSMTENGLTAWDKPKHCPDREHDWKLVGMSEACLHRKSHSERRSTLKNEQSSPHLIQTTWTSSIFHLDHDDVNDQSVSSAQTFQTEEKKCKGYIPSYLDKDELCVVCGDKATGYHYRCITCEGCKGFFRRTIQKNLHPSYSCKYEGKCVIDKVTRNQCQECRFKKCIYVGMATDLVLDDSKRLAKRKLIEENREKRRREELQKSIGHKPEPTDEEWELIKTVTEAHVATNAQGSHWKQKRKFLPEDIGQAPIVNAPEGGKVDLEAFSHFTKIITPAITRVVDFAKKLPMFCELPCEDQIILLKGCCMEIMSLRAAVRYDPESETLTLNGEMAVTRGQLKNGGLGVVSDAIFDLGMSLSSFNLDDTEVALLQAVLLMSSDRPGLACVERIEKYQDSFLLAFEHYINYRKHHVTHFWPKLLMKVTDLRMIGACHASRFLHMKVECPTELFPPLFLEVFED

[2] = molecular target: mouse Peroxisome Proliferator-activated Receptor gamma (PPARg), Pparg (gene 19016) (UniProt P37238); assay: ATG_mPPARg_XSP2: Attagene TRANS-FACTORIAL Multi-Species (XSP2) HepG2 Assay for mouse Peroxisome Proliferator-activated Receptor gamma (PPARg) (AID 2283830);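 further: hits are gains in reporter mRNA above DMSO so AC50 marks activation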
Outline: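 Multiplexed TRANS reporter readout: after 24 h chemical exposure of transfected HepG2 cells (with 3 nM 6-alpha-fluorotestosterone, 1.5 nM norgestrel present), RNA reverse-transcribed, amplified, 6-FAM-labelled and resolved by capillary electrophoresis; mouse PPARg-Gal4 induction scored against DMSO.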

[3] = molecular target: Nuclear receptor subfamily 1 group I member 2 (Mus musculus) (UniProt O54915); assay: ATG_mPXR_XSP2: Attagene TRANS-FACTORIAL Multi-Species (XSP1) HepG2 Assay for mouse Pregnane X Receptor (PXR) (AID 2283831)
Outline: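 Fluorescence signals from capillary electrophoresis of RT-PCR-amplified reporter mRNA give the readout, gain-of-signal versus DMSO. Transfected HepG2 cells, 24 h dosing, medium contained 3 nM 6-alpha-fluorotestosterone and 1.5 nM norgestrel.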

[4] = molecular target: zebrafish Thyroid Hormone Receptor alpha (TRa), thraa (gene 30670) (UniProt Q98867); assay: ATG_zfTRa_XSP2: Attagene TRANS-FACTORIAL Multi-Species (XSP1) HepG2 Assay for zebrafish Thyroid Hormone Receptor alpha (TRa) (AID 2283832);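 further: actives raise zebrafish TRa-Gal4 reporter transcript above DMSO baseline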
Outline: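 Chimeric zebrafish TRa-Gal4 activity read in transfected human HepG2 as GAL4-UAS reporter transcripts, 24 h post-dose, via RT-PCR with labeled primer extension and capillary electrophoresis. Medium also carries 3 nM 6-alpha-fluorotestosterone and 1.5 nM norgestrel; DMSO baseline.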

[5] = test system: zebrafish Peroxisome Proliferator-activated Receptor gamma (PPARg), gene 557037; assay: ATG_zfPPARg_XSP2: Attagene TRANS-FACTORIAL Multi-Species (XSP2) HepG2 Assay for zebrafish Peroxisome Proliferator-activated Receptor gamma (PPARg) (AID 2283833);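 further: reporter mRNA from a zebrafish PPARg GAL4 chimera measured by RT-PCR and capillary electrophoresis; actives increase reporter signal over DMSO so AC50 reflects activation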
Outline: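 HepG2, transient MRTU transfection, 24 h compound; zfPPARg-GAL4 reporter mRNA by RT-PCR + capillary electrophoresis; gain-of-signal vs DMSO.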

[6] = test system: turtle Thyroid Hormone Receptor, alpha (TRa), gene 101949057; assay: ATG_trTRa_XSP2: Attagene TRANS-FACTORIAL Multi-Species (XSP1) HepG2 Assay for turtle Thyroid Hormone Receptor, alpha (TRa) (AID 2283834);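 further: hits raise reporter mRNA over the DMSO baseline so AC50 marks activators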
Outline: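 Multiplexed TRANS reporter assay; HepG2 carrying NR-Gal4 constructs treated 24 h. mRNA of the GAL4-UAS reporter quantified via labelled RT-PCR fragments on a genetic analyzer, vs DMSO negative control.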

[7] = ATG_M_61_XSP2: Attagene TRANS-FACTORIAL Multi-Species (XSP2) HepG2 Assay for M61 Transcription Factor (Internal Marker) (AID 2283835; active means hit-call score of the fitted dose curve at least 0.9, where 1 is the maximum; inactive means score below 0.9;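 further: reporter mRNA of an internal background marker read by RT-PCR and capillary electrophoresis; active means a rise in signal above the DMSO baseline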)
Protocol: ATG_XSP2_multi-species_TRANS is a cell-based, multiplexed assay created by modifying the existing Attagene TRANS-FACTORIAL system to include a panel of nuclear receptors from some or all the following species: human (Homo sapiens), mouse (Mus musculus), frog (Xenopus laevis), zebrafish (Danio rerio), chicken (Gallus gallus), and turtle (Chrysemys picta). The ECOTOX-FACTORIAL format uses HepG2, a human liver cell line, with measurements taken at 24 hours after chemical dosing in a 24-well plate. Xsp2 included 3 nM 6-alpha-fluorotestosterone and 1.5 nM norgestrel to stimulate the androgen receptor.ATG_M_61_XSP2 is one of 29 assay components measured or calculated from the ATG_XSP2_multi-species_TRANS assay. It is designed to make measurements of mRNA induction, a form of inducible reporter, as detected with fluorescence intensity signals by Reverse transcription polymerase chain reaction (RT-PCR) and Capillary electrophoresis technology.This assay endpoint, ATG_M_61_XSP2, was analyzed in the positive analysis fitting direction relative to DMSO as the negative control and baseline of activity. […] Furthermore, this assay endpoint can be referred to as a secondary readout, because this assay has produced multiple assay endpoints where this one serves a background control function. […]

[8] = molecular target: human Thyroid hormone Receptor alpha (TRa), THRA (gene 7067) (UniProt P10827); assay: ATG_hTRa_XSP2: Attagene TRANS-FACTORIAL Multi-Species (XSP2) HepG2 Assay for human Thyroid hormone Receptor alpha (TRa) (AID 2283838)
Outline: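 Reporter transcripts were read by RT-PCR with fluorescent primer extension, HpaI digestion and capillary electrophoresis. These came from HepG2 cells carrying multiplexed TRa-Gal4 TRANS constructs, harvested 24 hours after dosing. The medium also held 6-alpha-fluorotestosterone (3 nM) and norgestrel (1.5 nM), and increases were fitted against DMSO.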

[9] = molecular target: frog Thyroid hormone Receptor alpha (TRa), thra-a (gene 397942) (UniProt P15204); assay: ATG_frTRa_XSP2: Attagene TRANS-FACTORIAL Multi-Species (XSP2) HepG2 Assay for frog Thyroid hormone Receptor alpha (TRa) (AID 2283839)
Outline: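 Chimeric frog TRα-GAL4 activity in human liver cells measures reporter transcript induction 24 h post-dose. Detection uses RT-PCR, HpaI-digested labelled products and fluorescence capillary electrophoresis; DMSO serves as negative control.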

[10] = molecular target: human Thyroid hormone Receptor beta (TRb), THRB (gene 7068) (UniProt P10828); assay: ATG_hTRb_XSP2: Attagene TRANS-FACTORIAL Multi-Species (XSP2) HepG2 Assay for human Thyroid hormone Receptor beta (TRb) (AID 2283840);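 further: actives raise reporter mRNA so potency reflects agonist-like gain of signal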
Outline: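 Gain-of-signal reporter transcription, referenced to DMSO, was measured in transiently transfected HepG2 after 24 h exposure; labeled RT-PCR products were resolved by capillary electrophoresis. Assay medium included 3 nM 6-alpha-fluorotestosterone and 1.5 nM norgestrel.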

Measured: AC50

O=C1C2CC=CCC2C(=O)N1SC(Cl)(Cl)C(Cl)Cl (configuration not stated)
active: [1] 44 µM

Cc1cc([N+](=O)[O-])cc([N+](=O)[O-])c1O
inactive: [1]

O=[P+](Oc1ccccc1)Oc1ccccc1
inactive: [2] | [3] | [4] | [5] | [6] | [7] | [8] | [9] | [10]

CC(C)OP(=S)(OC(C)C)SCCNS(=O)(=O)c1ccccc1
active: [1] 50 µM and 49.2 µM
